High-throughput results (PubChem)
Rows were chosen to be rich in hits. Some 2.1% of all compounds tested hit in one or more screens of this group.
Wnt act: activators of Wnt/beta-catenin signaling | Wnt/beta-catenin reporter cell assay, activator, plate reader | activation, % at 9.35 µM | 1.2% of 300,000 active | AID 743398; in the data active = activation above about 30%, passing the limit was not always enough; inconclusive = no clear call, values can overlap the other calls;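 note: 0% = neutral control wells and 100% = positive control wells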
PGC1a acetyl inh: modulators of PGC1a acetylation. U2OS PGC1a acetylation, AlphaScreen anti-acetyl-lysine; with virally co-expressed GCN5 acetyltransferase. inhibition, % at 15.6 µM. 0.17% of 350,000 active;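 active = every replicate shows inhibition of at least 40%; inconclusive = mean inhibition at least 40% but some replicate below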;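 note: 0% = neutral control wells and 100% = positive control wells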
miR122 inh: blocks miR-122 activity in Huh7 sensor cells. Huh7 miR-122 Renilla luciferase sensor, 48 h; neutral wells = 0, positive control = 100. activation (reporter increase), % at 12.5 µM. 0.3% of 340,000 active. AID 602342;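 active = mean replicate activation score at least 90 and every replicate individually at or above 90; inconclusive = only one of the two criteria met; inactive = neither criterion met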;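 note: higher luciferase means less miR-122 activity so hits act as miR-122 inhibitors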
MITF act: MITF TRPM1 promoter activation in melanoma cells; SK-MEL-5 TRPM1-promoter luciferase, 24 h; % of positive control, neutral wells = 0; activation, % at 12.5 µM; 0.75% of 300,000 active;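 active = mean activation of at least 80% with every replicate also reaching 80%; inconclusive = mean reaches 80% but some replicate falls short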;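 note: 0% = neutral control wells and 100% = parthenolide positive control wells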
Yeast UUG start: modulators of start codon recognition fidelity in yeast; AID 602363; hit rate 0.13% among 350,000; activity score, % at 18.7 µM; S. cerevisiae UUG-firefly luciferase reporter, luminescence/redox ratio;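 active = replicate mean at a twofold rise or more, about +100% in these data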;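 note: firefly luciferase made from a UUG start codon reports start codon fidelity; reporter light over untreated wells divided by growth signal over untreated wells; some hits fall short of that in this replicate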
TRPM1 prom inh: inhibitors of MITF-driven TRPM1 promoter in melanoma cells; SK-MEL-5 TRPM1 promoter luciferase, 24 h; inhibition, % at 12.5 µM; 0.83% of 330,000 active; AID 488899;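 active = mean inhibition across replicates of 60% or more, whatever share of single replicates reaches that level; inconclusive = some that reach 60%, reason not given; inactive = mean inhibition across replicates below 60%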
An asterisk follows results filed as active; ? = inconclusive; . = not tested or not shown; [ ] = another dose, or the depositor's remark.

SMILES | Wnt act | PGC1a acetyl inh | miR122 inh | MITF act | Yeast UUG start | TRPM1 prom inh
Cc1cc2nc(/C=C/c3nc4cc(C)c(C)cc4[nH]3)[nH]c2cc1C | 7 | -5 | . | 5 | -13 | 1
Cc1cc2nc(/C=C/c3cccnc3)[nH]c2cc1C | 0 | 67* | 15 | . | -18 | -27
CCCNC(=O)C[C@H]1C[C@@H]2c3cc(NS(=O)(=O)c4ccccc4)ccc3O[C@@H]2[C@H](CO)O1 | . | -3 | -5[16.7 µM] | . | -2 | .
CCCNC(=O)N(C)C[C@H]1Oc2cc(-c3cccnc3)ccc2S(=O)(=O)N([C@@H](C)CO)C[C@H]1C | . | -4 | -7[16.7 µM] | . | 6 | .
Cc1ccc(C(=O)CN2C(=O)NC3(CCCCCC3)C2=O)c(C)c1 | 24 | . | . | 115* | . | -111
CCn1c(C)cc(C=C2C(=O)c3ccccc3C2=O)c1C | 9 | . | . | 5 | . | -5
Cc1cc(C=C2C(=O)c3ccccc3C2=O)c(C)n1C | 63* | 12 | -5 | 8 | -14 | -3
CO[C@H]1CN(C)C(=O)c2ccc(NS(=O)(=O)c3cn(C)cn3)cc2OC[C@H](C)N(Cc2cccc(F)c2)C[C@@H]1C | . | -7 | . | . | . | .
CC(C)CNS(=O)(=O)c1cc2c3c(c1)CCC(=O)N3CCC2 | -1 | 1 | 93* | 6 | -14 | -7
Cc1noc(C)c1NC(=O)Nc1cccc2c1O[C@@H](CN(C)C(=O)Nc1c(C)noc1C)[C@H](C)CN([C@@H](C)CO)C2=O | . | -5 | -2[16.7 µM] | . | 5 | .
Cc1ccc(-c2cn3cccnc3n2)cc1 | ? | -2 | -5 | 84* | -20 | -77
Cc1ccc2nc(-c3ccc(O)c(O)c3)cn2c1 | 0 | 8 | -4 | -41 | -84 | 46
O=C(Nc1cccc(-c2cn3cccnc3n2)c1)c1ccc2c(c1)OCO2 | . | -7 | 0 | 36 | -15 | -44
c1cnc2nc(-c3ccc4c(c3)OCO4)cn2c1 | -2 | 4 | -8 | 87* | -11 | -85
COC(=O)c1ccc2nc(-c3ccc4c(c3)OCO4)cn2c1 | -1 | 0 | 6 | -14 | -62 | 17
CCc1ccn2cc(-c3ccc4c(c3)OCO4)nc2c1 | -5 | 14 | 4 | . | -86 | 65*
Cc1ccc2nc(-c3ccccc3)cn2c1 | . | -3 | 1 | -87 | -88 | 88*
CS(=O)(=O)Nc1ccc(-c2cn3cccnc3n2)cc1 | 0 | -6 | 2 | 7 | -10 | -3
CCC(=O)Nc1ccc2c(c1)C(=O)N(C)C[C@H](OC)[C@@H](C)CN(C(=O)c1cnccn1)[C@H](C)CO2 | . | -10 | . | . | 10 | .
O=C(Nc1ccc(NC(=O)C2CC2)cn1)c1ccccc1Cl | 37* | 17 | 2 | 35 | -14 | -35
O=C(Nc1ccc(NC(=O)C2CC2)cn1)c1ccccc1 | 15 | . | -4 | -4 | -42 | 2
O=C(Nc1ccc(NC(=O)C2CCCCC2)nc1)c1ccccn1 | ? | . | -4 | 94* | -8 | -86
COc1ccccc1C(=O)Nc1ccc(NC(=O)C2CCCCC2)nc1 | 1 | . | -2 | 25 | -15 | -23
Cc1ccc(S(=O)(=O)N2CCCC(C(=O)Nc3ccc(NC(=O)c4ccccn4)cc3)C2)cc1 (stereo not given) | 60* | -12 | -7 | 37 | -7 | -37
COc1ccc(S(=O)(=O)N(C)C[C@@H]2OCCCC[C@@H](C)Oc3ccc(NS(=O)(=O)c4ccccc4)cc3C(=O)N([C@@H](C)CO)C[C@@H]2C)cc1 | . | 2 | 15[16.7 µM] | . | -3 | .
Next section
SMILES | Wnt act | PGC1a acetyl inh | miR122 inh | MITF act | Yeast UUG start | TRPM1 prom inh
Cc1cccc2nc(CSc3ccccc3N)cn12 | . | 1 | -5 | 42 | . | -41
Cc1cccc2nc(COc3ccc4ccccc4c3Br)cn12 | 0 | -3 | . | 100* | . | -103
C/C=C/c1ccc([C@H]2[C@H](CO)N(C(=O)CC)[C@H]2CNC(=O)CC2CC2)cc1 | . | -5 | -7[16.7 µM] | . | -4 | .
COC(=O)c1ccc2[nH]c(C3(O)CCCCC3)c(C)c2c1 | ? | -5 | -4 | 83* | -12 | -80
COCC#Cc1ccc(CC[C@H]2O[C@H]3CC[C@H](CO)O[C@H]3C[C@@H]2n2cc(C3CC3)nn2)cc1 | . | -6 | . | . | . | .
C[C@@H]1CN([C@@H](C)CO)C(=O)c2cc(NC(=O)Nc3ccc(C(F)(F)F)cc3)ccc2O[C@@H](C)CCCCO[C@@H]1CN(C)Cc1ccccc1 | . | -7 | 8[16.7 µM] | . | 7 | .
COc1cc(CN2[C@@H]3CNC[C@H]2C3c2ccc(/C=C/c3ccccc3)cc2)cc(OC)c1 (stereo not given in full) | . | 0 | . | . | . | .
NC(=O)c1oc2ccccc2c1NC(=O)c1ccc(F)cc1 | 1 | 3 | 5 | . | -17 | .
NC(=O)c1oc2ccccc2c1NC(=O)c1ccc([N+](=O)[O-])o1 | -3 | 11 | -3 | -83 | -15 | 83*
CC(=O)c1ccc(NC(=O)c2ccc([N+](=O)[O-])o2)cc1 | 6 | -101 | -1 | . | -31 | 18
Cc1cc(C)cc(NC(=O)c2ccc([N+](=O)[O-])o2)c1 | 0 | -247 | 22 | -64 | . | 65*
COc1cc(NC(=O)c2cccc([N+](=O)[O-])c2)ccc1NC(=O)c1ccco1 | -3 | . | . | 14 | . | -13
Cc1cc(NC(=O)c2ccc([N+](=O)[O-])o2)ccc1NC(=O)c1ccco1 | ? | . | . | -74 | -21 | 77*
COc1cc(NC(=O)c2ccc([N+](=O)[O-])o2)ccc1NC(=O)c1ccco1 | 6 | 16 | 2 | -84 | 10 | 84*
C/C=C/c1cnc2c(c1)C(=O)N([C@H](C)CO)C[C@H](C)[C@@H](CN(C)Cc1cccc(C(=O)O)c1)O2 | . | -1 | -7[16.7 µM] | . | . | .
COc1cc(NC(=O)C(C)C)ccc1NC(=O)c1ccco1 | -2 | . | -2 | 91* | -20 | -85
COc1cc2c(cc1OC)C(c1ccccc1)N(C(=O)CCl)CC2 (stereo not given) | 3 | 8 | 0 | -92 | 14 | 93*
O=C(C[C@@H]1C/C=C/CC[C@H](Cc2ccc(F)cc2)C(=O)OC[C@@H](Cc2ccccc2)NC1=O)N[C@H](CO)Cc1ccccc1 | -20 | -3 | -6 | -89 | 7 | 91*
Cc1cc(C(C)(C)CC(C)(C)C)ccc1OCCOCC[N+](C)(C)Cc1ccccc1 | -20 | -35 | -58 | -96 | -7 | 96*
C[N+](C)(CCOc1ccccc1)Cc1ccccc1 | -2 | -14 | 2 | -8 | -16 | 6
O=C(Nc1ccc(Cl)c(S(=O)(=O)N2CCOCC2)c1)c1ccc(OCC2CCCO2)cc1 (stereo not given) | . | 16 | -2 | -70 | . | 72*
O=C(NC1=NCCS1)c1ccc(OCC2CCCO2)cc1 (stereo not given) | 40* | 11 | 7 | 28 | -35 | -25
CCOc1ccc(C(=O)NC2=NCCS2)cc1 | 12 | . | . | . | . | .
CNC(=O)C[C@@H]1CC[C@@H]2[C@H](COC[C@H](O)CN2C(=O)Nc2cccc(OC)c2)O1 | . | -3 | 3[16.7 µM] | . | -1 | .
O=C(NCCc1ccccc1)C(=Cc1ccc(C(=O)O)cc1)C(=O)NCCc1ccccc1 | -1 | . | -9 | -7 | 20 | 6

3 entries out of the list above, sorted by their value in miR122 inh, falling.
SMILES | Wnt act | PGC1a acetyl inh | miR122 inh | MITF act | Yeast UUG start | TRPM1 prom inh
C[N+](C)(CCOc1ccccc1)Cc1ccccc1 | -2 | -14 | 2 | -8 | -16 | 6
COc1cc2c(cc1OC)C(c1ccccc1)N(C(=O)CCl)CC2 (stereo not given) | 3 | 8 | 0 | -92 | 14 | 93*
CC(=O)c1ccc(NC(=O)c2ccc([N+](=O)[O-])o2)cc1 | 6 | -101 | -1 | . | -31 | 18

Single records, from the list above. Screens in order: Wnt act	PGC1a acetyl inh	miR122 inh	MITF act	Yeast UUG start	TRPM1 prom inh
Listed for COc1cc(NC(=O)c2ccc([N+](=O)[O-])o2)ccc1NC(=O)c1ccco1 : 6	16	2	-84	10	84*
Listed for NC(=O)c1oc2ccccc2c1NC(=O)c1ccc(F)cc1 : 1	3	5	.	-17	.
